The experiment concerns S6K, S6 and 4EBP1 phosphorylation in L6 myotubes. As to the kind of experiment: mTORC1 substrate phosphorylation in L6 myotubes (Western blot).

From PMC2637922, “Active-Site Inhibitors of mTOR Target Rapamycin-Resistant Outputs of mTORC1 and mTORC2” (PLoS Biology, 2009) come the findings set out here.

On to `CC(C)n1nc(-c2cccc(C(=O)NC3=NCCS3)c2)c2c(N)ncnc21` [PP30], for which the “phosphorylation of 4EBP1 at T36/45” value is given as “effective at reducing”.
